This is an account of results in ChEMBL document CHEMBL1124159, “Synthesis and structure-activity relationships of 2-sulfonamido-1,3,4,6,7,11b alpha-hexahydro-2H-benzo[a]quinolizines as alpha 2-adrenoceptor antagonists” (J Med Chem, 1988).

The chains behind the UniProt entries cited, without tags or fusion partners.
UniProt P22086, whole entry, looked up: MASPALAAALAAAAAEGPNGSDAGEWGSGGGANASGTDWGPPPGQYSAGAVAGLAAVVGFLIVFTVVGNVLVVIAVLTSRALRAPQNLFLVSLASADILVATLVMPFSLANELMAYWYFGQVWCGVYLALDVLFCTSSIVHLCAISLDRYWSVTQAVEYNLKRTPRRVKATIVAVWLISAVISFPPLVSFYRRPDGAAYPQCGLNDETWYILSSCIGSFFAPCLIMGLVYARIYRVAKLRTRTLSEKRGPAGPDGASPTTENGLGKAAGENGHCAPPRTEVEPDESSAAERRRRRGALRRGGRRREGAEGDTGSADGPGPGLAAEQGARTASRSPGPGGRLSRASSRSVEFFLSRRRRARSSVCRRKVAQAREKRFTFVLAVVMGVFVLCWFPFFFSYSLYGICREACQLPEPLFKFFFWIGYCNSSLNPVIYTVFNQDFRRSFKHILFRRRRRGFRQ
UniProt P19328, whole entry, looked up: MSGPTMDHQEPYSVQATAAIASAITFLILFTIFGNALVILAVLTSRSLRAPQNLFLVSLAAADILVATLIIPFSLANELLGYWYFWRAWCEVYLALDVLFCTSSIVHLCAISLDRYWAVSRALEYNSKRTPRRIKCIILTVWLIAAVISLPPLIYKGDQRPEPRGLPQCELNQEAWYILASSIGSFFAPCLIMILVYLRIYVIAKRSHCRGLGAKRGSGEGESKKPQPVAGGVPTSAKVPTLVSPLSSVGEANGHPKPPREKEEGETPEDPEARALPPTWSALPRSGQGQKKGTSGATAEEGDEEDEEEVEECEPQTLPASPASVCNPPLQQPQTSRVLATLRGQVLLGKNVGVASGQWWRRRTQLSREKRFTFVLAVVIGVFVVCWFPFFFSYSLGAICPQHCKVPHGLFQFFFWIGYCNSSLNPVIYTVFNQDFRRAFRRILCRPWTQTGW
UniProt P22909, whole entry, looked up: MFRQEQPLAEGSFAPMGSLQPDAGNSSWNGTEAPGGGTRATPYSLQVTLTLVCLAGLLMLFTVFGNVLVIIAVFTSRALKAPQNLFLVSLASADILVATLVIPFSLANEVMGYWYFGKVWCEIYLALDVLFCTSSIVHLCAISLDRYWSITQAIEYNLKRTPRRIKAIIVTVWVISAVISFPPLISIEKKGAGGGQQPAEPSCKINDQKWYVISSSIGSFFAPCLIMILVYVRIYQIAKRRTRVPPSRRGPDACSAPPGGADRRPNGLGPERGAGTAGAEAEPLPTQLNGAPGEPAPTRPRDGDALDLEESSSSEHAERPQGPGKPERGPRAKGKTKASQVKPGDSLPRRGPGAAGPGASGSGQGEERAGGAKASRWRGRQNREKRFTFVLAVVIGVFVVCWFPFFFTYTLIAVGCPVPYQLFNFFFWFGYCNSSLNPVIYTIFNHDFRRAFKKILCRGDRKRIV

The target in this test is Adrenergic receptor alpha-2 (Rattus norvegicus, UniProt P22086+P19328+P22909). The test is described as follows: Antagonistic activity against alpha-2 adrenergic receptor in rat vas deferens. The test is classed as functional, tissue-based.
One may read the pA2 as a measure of antagonist potency on a negative log scale. `CN(C(=O)c1ccccc1)[C@@H]1CCN2CCc3ccccc3[C@@H]2C1` had a pA2 of 6.62. Under `CN(C(N)=O)[C@@H]1CCN2CCc3ccccc3[C@@H]2C1` stands 6; under `CC(C)COC(=O)N(C)[C@@H]1CCN2CCc3ccccc3[C@@H]2C1`, 7.1.

In turn, `CC(=O)N(C)[C@@H]1CCN2CCc3ccccc3[C@@H]2C1` returned a pA2 of 6.5.

`CC(C)CC(=O)N(C)[C@@H]1CCN2CCc3ccccc3[C@@H]2C1` had a pA2 of 6.45. `COC(=O)N(C)[C@@H]1CCN2CCc3ccccc3[C@@H]2C1` gave a pA2 of 7.9. `CCOC(=O)N(C)[C@@H]1CCN2CCc3ccccc3[C@@H]2C1`: the pA2 was 7.77.
